Data reported in article PMC4482215, “Structure and dynamics of the membrane attaching nitric oxide transporter nitrophorin 7” (2015).

Sequences of proteins named here, by UniProt entry; tags and fusion partners are left off. Residues count along the entry.
UniProt Q6PQK2, 21-205 limits assumed: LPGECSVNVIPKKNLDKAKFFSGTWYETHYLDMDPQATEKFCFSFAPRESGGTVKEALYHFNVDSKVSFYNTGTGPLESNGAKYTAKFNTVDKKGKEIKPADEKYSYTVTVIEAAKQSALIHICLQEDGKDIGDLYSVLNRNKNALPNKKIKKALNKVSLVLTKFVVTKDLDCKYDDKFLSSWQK

Experiments:
nitrophorin 7 (NP7) [1] = target: T1, nitrophorin 7 (NP7) (Rhodnius prolixus, UniProt Q6PQK2); assay: X-ray crystallography (crystal soak); details: pH 7.8
nitrophorin 7 (NP7) [2] = target: T1, nitrophorin 7 (NP7); assay: X-ray crystallography (heme-reconstituted protein); details: pH 5.8; 1.42 Å; proximal ligand His60; iron photoreduced to Fe(II) in the beam; heme B orientation

NCCc1c[nH]cn1
X-ray crystallography (crystal soak) (nitrophorin 7 (NP7) [1]; 1.60 Å, coordinates heme iron, salt bridge to Asp32, heme B orientation): the binding of Hm is accomplished not only through the coordination of heme iron

c1c[nH]cn1
X-ray crystallography (crystal soak) (nitrophorin 7 (NP7) [1]; 1.80 Å, binds heme iron, water-bridged to Asp32, heme A orientation): When ImH is bound, the missing ethylamine is compensated by H-bonding to a water molecule

C=CC1=C(C)C2=Cc3c(C=C)c(C)c4[n]3[Fe][n]3c(c(C)c(CCC(=O)O)c3=CC3=NC(=C4)C(C)=C3CCC(=O)O)=CC1=N2
X-ray crystallography (heme-reconstituted protein) (nitrophorin 7 (NP7) [2]): hosts the heme cofactor including the ligation by the proximal His60 residue
